# Biological target: activated ERK2 (Homo sapiens, UniProt P28482)
# Amino acid sequences for entries named in this document (tags omitted).
# UniProt P28482, whole entry: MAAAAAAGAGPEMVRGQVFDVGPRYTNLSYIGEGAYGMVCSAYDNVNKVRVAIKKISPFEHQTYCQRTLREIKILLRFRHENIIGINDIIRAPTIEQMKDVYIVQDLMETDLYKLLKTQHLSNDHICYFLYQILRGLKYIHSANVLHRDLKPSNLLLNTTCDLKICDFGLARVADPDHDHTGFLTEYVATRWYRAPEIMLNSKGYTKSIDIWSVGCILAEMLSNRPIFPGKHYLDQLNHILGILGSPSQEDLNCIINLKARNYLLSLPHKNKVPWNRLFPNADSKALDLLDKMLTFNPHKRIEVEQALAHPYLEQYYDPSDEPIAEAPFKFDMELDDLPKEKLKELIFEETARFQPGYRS
# Test: ERK2 inhibition spectrophotometric coupled-enzyme assay
# Details: read-out: ERK2 Inhibitory Activity (Ki class); activated ERK2 10 nM, 65 μM ATP, 30° C., pH 7.5
# Method: Compounds are assayed for the inhibition of ERK2 by a spectrophotometric coupled-enzyme assay (Fox et al (1998) Protein Sci 7, 2249). In this assay, a fixed concentration of activated ERK2 (10 nM) is incubated with various concentrations of the compound in DMSO (2.5%) for 10 min. at 30° C. in 0.1 M HEPES buffer, pH 7.5, containing 10 mM MgCl2, 2.5 mM phosphoenolpyruvate, 200 μM NADH, 150 μg/mL pyruvate kinase, 50 μg/mL lactate dehydrogenase, and 200 μM erktide peptide. The reaction is initiated by the addition of 65 μM ATP. The rate of decrease of absorbance at 340 nm is monitored, which indicates the extent of uninhibited enzyme present in the assay. The IC50 is evaluated from the rate data as a function of inhibitor concentration.
# The compound numbers correspond to the compound numbers in Tables 1-3.
row,Ki [nM],Compound
1,< 1000,CC(=O)NC(CO)C(=O)NCc1ccc(-c2cn[nH]c2-c2c[nH]c(C(=O)NC(CO)c3ccc(F)c(Cl)c3)c2)cc1Cl (centres unmarked)
2,1000 to 5000,CCCCNC(=O)NCc1cc(Cl)cc(-c2c[nH]nc2-c2c[nH]c(C(=O)N[C@H](COC(=O)NCCCC)c3ccccc3)c2)c1
3,< 1000,CCCCNC(=O)NCc1cc(Cl)cc(-c2c[nH]nc2-c2c[nH]c(C(=O)N[C@H](CO)c3ccccc3)c2)c1
4,< 1000,CC(=O)N[C@H](CO)C(=O)NCc1ccc(-c2cn[nH]c2-c2c[nH]c(C(=O)N[C@H](CO)c3ccc(F)c(Cl)c3)c2)cc1Cl
5,< 1000,CCCCN(CCCC)Cc1cc(Cl)cc(-c2c[nH]nc2-c2c[nH]c(C(=O)N[C@H](CO)c3ccccc3)c2)c1
6,< 1000,CC(=O)N[C@@H](CO)C(=O)NCc1ccc(-c2c[nH]nc2-c2c[nH]c(C(=O)N[C@H](CO)c3ccc(F)c(Cl)c3)c2)cc1Cl
7,< 1000,CCC(=O)NCc1cc(Cl)cc(-c2c[nH]nc2-c2c[nH]c(C(=O)N[C@H](CO)c3ccccc3)c2)c1
8,< 1000,COCCC(=O)NCc1ccc(-c2c[nH]nc2-c2c[nH]c(C(=O)N[C@H](CO)c3ccccc3)c2)cc1Cl

# — patent US6750239B2, “Pyrazole-derived kinase inhibitors and uses thereof” (Vertex Pharmaceuticals Incorporated, priority 2001, dated 2004)
